Measured values: patent publication US7314861B2, “Melanin-concentrating hormone analogs” (priority 2001, dated 2008)

Sequences of proteins named here, by UniProt entry; tags and fusion partners are left off. A change or cut given only in a name is not applied to a line headed by its entry.
UniProt Q99705: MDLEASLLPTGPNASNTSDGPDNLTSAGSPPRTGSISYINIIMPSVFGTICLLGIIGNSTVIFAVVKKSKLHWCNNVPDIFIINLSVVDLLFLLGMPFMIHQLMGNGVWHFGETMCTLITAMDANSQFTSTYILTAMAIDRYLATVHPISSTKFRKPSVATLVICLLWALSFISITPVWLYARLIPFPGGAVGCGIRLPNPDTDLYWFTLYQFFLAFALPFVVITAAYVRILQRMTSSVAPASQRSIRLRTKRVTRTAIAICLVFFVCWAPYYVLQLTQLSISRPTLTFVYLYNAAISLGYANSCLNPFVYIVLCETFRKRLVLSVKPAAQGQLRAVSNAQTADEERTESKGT
UniProt Q969V1: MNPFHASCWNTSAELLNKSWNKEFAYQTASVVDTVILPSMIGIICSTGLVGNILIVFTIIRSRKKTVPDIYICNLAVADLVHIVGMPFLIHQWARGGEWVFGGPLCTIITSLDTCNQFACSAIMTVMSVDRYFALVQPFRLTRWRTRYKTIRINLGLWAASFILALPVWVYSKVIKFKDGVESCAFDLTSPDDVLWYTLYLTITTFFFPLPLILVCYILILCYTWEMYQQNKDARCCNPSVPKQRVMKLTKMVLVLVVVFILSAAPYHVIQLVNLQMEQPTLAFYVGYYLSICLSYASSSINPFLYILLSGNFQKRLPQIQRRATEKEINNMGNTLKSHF

Assays:
human MCH-1R [1] = biological target: T1, human MCH-1R (Homo sapiens, UniProt Q99705); assay: Aequorin bioluminescence functional assay, MCH-1R; details: for MCH-1R Activation %: Table 1, % Activation at 10 μM, aequorin functional assay
human MCH-1R [2] = biological target: T1, human MCH-1R; assay: Radiolabeled MCH-R binding assay (SPA based), MCH-1R
human MCH-R2 = human MCH-R2 (Homo sapiens, UniProt Q969V1); assay: Aequorin bioluminescence functional assay, MCH-2R; details: for EC50: MCH-2R EC50 (nM), 293-AEQ17 cells; for EC50 / MCH-2R Activation %: Table 1, aequorin functional assay; for MCH-2R Activation %: % Activation at 10 μM

CCCC[C@@H]1NC(=O)[C@@H](NC(=O)[C@H](CCCNC(=N)N)NC(C)=O)CSSC[C@@H](C(N)=O)NC(=O)[C@@H]2CCCN2C(=O)[C@H](CCCNC(=N)N)NC(=O)[C@H](Cc2ccc(O)cc2)NC(=O)[C@H](C(C)C)NC(=O)[C@H](CCCNC(=N)N)NC(=O)CNC(=O)[C@H](CC(C)C)NC1=O [compound 5] was tested, and the “MCH-1R Activation %” value (human MCH-1R [1]) was 105%, the IC50 (human MCH-1R [2]) was 0.5 nM and the EC50 (human MCH-R2) was 12 nM. The “MCH-2R Activation %” value (human MCH-R2) was 105%.

In the case of CC(=O)N[C@@H](CCCNC(=N)N)C(=O)N[C@H]1CSSC[C@@H](C(N)=O)NC(=O)[C@@H]2CCCN2C(=O)[C@H](CCCNC(=N)N)NC(=O)[C@H](Cc2ccc(O)cc2)NC(=O)[C@H](C(C)C)NC(=O)[C@H](CCCNC(=N)N)NC(=O)[C@@H](C)NC(=O)[C@H](CC(C)C)NC(=O)[C@H](C)NC1=O [compound 35], the EC50 (human MCH-1R [1]) is reported as over 10000 nM, the EC50 (human MCH-R2) is reported as 140 nM and the “MCH-2R Activation %” value (human MCH-R2) is reported as 120%. The “selective activity at MCH-2R over MCH-1R” value (human MCH-R2; greater binding and/or activation at MCH-2R than at MCH-1R) was “selectively active”.

For CSCC[C@@H]1NC(=O)[C@@H](NC(=O)[C@H](CCCNC(=N)N)NC(C)=O)CSSC[C@@H](C(N)=O)NC(=O)CN(C)C(=O)[C@H](CCCNC(=N)N)NC(=O)[C@H](Cc2ccc(O)cc2)NC(=O)[C@H](C(C)C)NC(=O)[C@H](CCCNC(=N)N)NC(=O)CNC(=O)[C@H](CC(C)C)NC1=O [compound 32], the “MCH-1R Activation %” value (human MCH-1R [1]) was 113%, the EC50 (human MCH-R2) was 12 nM and the “MCH-2R Activation %” value (human MCH-R2) was 91%.
